Here are results for one molecule from patent publication US20230374068A1 (RAMOT AT TEL AVIV UNIVERSITY, published 2023).

The target in this test is T1, endogenous Rab12 of RBL cells (rat, UniProt P35284 49-291, limits assumed).
T1 construct: Total Rab12 pulled down from cell lysates (blot reprobed with anti-Rab12)
T1 sequence (looked up): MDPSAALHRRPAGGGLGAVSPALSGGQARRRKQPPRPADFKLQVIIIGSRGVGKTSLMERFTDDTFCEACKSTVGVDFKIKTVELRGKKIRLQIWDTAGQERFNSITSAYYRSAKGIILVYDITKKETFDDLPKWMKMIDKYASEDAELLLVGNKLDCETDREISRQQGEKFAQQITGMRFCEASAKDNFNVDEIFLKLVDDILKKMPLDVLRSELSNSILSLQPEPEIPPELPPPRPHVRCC
Description: GST pulldown from resting RBL cell lysates, anti-Rab12 immunoblot. On the procedure:
Cells were then lysed and 500 μg of cell lysate were incubated overnight at 4° C. with either GST, GST-RILP, GST-RILP-L1 or GST-RILP-L2, immobilized on glutathione agarose beads, as indicated. At the end of the incubation period, beads were sedimented by centrifugation at 5000×g for 5 minutes at 4° C., washed four times with buffer containing 50 mM Hepes pH 7.4, 150 mM NaCl, 1 mM MgCl₂, 0.2% Triton X-100, protease inhibitor mixture, 1 mM PMSF, 2 mM Na₃VO₄, 10 mM NaPPi and 80 mM β-glycerophosphate and suspended in 1× sample buffer and boiled for 7 minutes. Proteins were resolved by SDS-PAGE and analyzed by immunoblotting with the anti-phosphoRab12 antibodies, followed by reprobing with anti Rab12 antibodies, as indicated. Representative blots are shown. Similar results were obtained in two separate experiments.
Next, it was assessed whether […] any impact on Rab12 interactions with its RILP family effectors. To this end, lysates derived from resting RBL cells or RBL cells that were triggered with either IgE/Ag or Ion/TPA, were subjected to pulldown assays by chimeric proteins consisting of GST-fused to either RILP, RILP-L1, or RILP-L2, or control GST. […] Therefore, under these conditions, the efficacy of Rab12-effector interactions was RILP-L1>RILP>>>RILP-L2.
(In general: In western blotting, separated proteins are transferred to a membrane and probed.)

B1: GST (control) (other, UniProt P08515 1-218, looked up)
chain: MSPILGYWKIKGLVQPTRLLLEYLEEKYEEHLYERDEGDKWRNKKFELGLEFPNLPYYIDGDVKLTQSMAIIRYIADKHNMLGGCPKERAEISMLEGAVLDIRYGVSRIAYSKDFETLKVDFLSKLPEMLKMFEDRLCHKTYLNGDHVTHPDFMLYDALDVVLYMDPMCLDAFPKLVCFKKRIEAIPQIDKYLKSSKYIAWPLQGWQATFGGGDHPPK
notes: Negative control of the pulldown assays; also called control GST
On to B1, for which the binding result is “no binding”.
